Apparent affinities of Ab-14 variants for a coronavirus HR2 peptide

Reference: Engelhart et al. 2022, doi:10.1038/s41597-022-01779-4. File: FLAb, binding data.

Target: peptide PDVDLGDISGINAS, taken from heptad repeat 2 (HR2) of SARS-CoV-2 spike.

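Variants in AAYL49 differ from the parent at up to three CDR positions; double and triple changes were sampled at random. AlphaSeq pools MATa yeast showing the antibodies with MATalpha yeast showing the peptide. The frequency of each diploid, read from paired DNA barcodes, reflects how well the two displayed proteins bind. A regression on co-assayed BCL2-family reference pairs converts the normalised counts of each replicate to an apparent Kd. The assay was run in three technical replicates.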

Parent: Ab-14, a human scFv built as VH, a 15-residue (Gly4Ser)3 linker, VL. Only the CDRs of the heavy chain vary.
VH: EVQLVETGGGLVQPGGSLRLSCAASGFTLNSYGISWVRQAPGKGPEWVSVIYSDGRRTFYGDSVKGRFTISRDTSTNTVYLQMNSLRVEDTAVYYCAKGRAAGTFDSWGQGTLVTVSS
VL: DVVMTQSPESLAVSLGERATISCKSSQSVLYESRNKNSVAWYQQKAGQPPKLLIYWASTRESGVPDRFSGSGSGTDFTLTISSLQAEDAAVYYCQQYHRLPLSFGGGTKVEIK

Variants are written as CDR1, CDR2 and CDR3 of the heavy chain (limits as in the source). Parent: GFTLNSYGIS, VIYSDGRRTFYGDSVK, GRAAGTFDS. All variants listed here change S53 of the VH, counted from its first residue. Values are log10 of the apparent Kd in nM; lower means stronger binding. A mean of the replicates is given; it leaves out those without a signal. "no signal" marks a missing value. The strain was present, yet no cells mated with the target were sequenced in any replicate, which points to weak or no binding. Entries are sorted by rising average, undetected variants last. As a blank, each scFv also met three strains without target: over library AAYL49, 15% of these pairings were detected, typically at 4.06 and seldom below 2.83.

For GFALNSYGIS, VIYTDGRRTFYGDSVK, GRAACTFDS, the assay gave 2.02 (1 of 3 replicates).
For GFTLNSYGIS, VISVDGRRHFYGDSVK, GRAAGTFDS, the assay gave 2.35 (1 of 3 replicates).
For GFTLNSYGRS, VIYTDGRRTFYGDSVK, GRAACTFDS, the assay gave 2.60 (2 of 3 replicates).
For EFTLNSYGIS, VIYQDGRRTFYGDSVK, GRGAGTFDS, the assay gave 2.65 (3 of 3 replicates).
For GFTLNSYGIS, VIYYDGRRTFYMDSVK, GRAAVTFDS, the assay gave 2.85 (3 of 3 replicates).
For GFTLNSYGIS, VIYPDGFRTFYGDSVK, GRAAGTFWS, the assay gave 3.05 (3 of 3 replicates).
For GFTLNSYGIS, VIVMDGRRTFYGDSVK, GRAAGTFDS, the assay gave 3.48 (1 of 3 replicates).
For GFTLNSYGIS, VIYLDGRRTFYGDSVK, GRAAGTFYS, the assay gave 3.52 (2 of 3 replicates).
For GFTLNSYGIS, VIYIDGRRHFYGDSVK, QRAAGTFDS, the assay gave 3.68 (1 of 3 replicates).
For GFTLNSYGIS, VIYNDGNRTFYGDSVK, GRAGGTFDS, the assay gave 3.69 (2 of 3 replicates).
For GFTLNSYGIS, VIYYDGRRTFYGDSEK, GRPAGTFDS, the assay gave 3.78 (1 of 3 replicates).
For GFTLPSYGIS, VIYPDGRRTFYGDSVK, GRAAGSFDS, the assay gave 4.16 (2 of 3 replicates).
For GFTLNSYGIS, VIYGDGRRTFCADSVK, GRAAGTFDS, the assay gave 4.19 (2 of 3 replicates).
For GFTLNSYGIS, VIYLDGRRTFYGDSVK, GRAAGLFKS, the assay gave 4.63 (2 of 3 replicates).
For GFTLNSYGHS, VIYQDGRDTFYGDSVK, GRAAGTFDS, the assay gave 4.96 (3 of 3 replicates).
For GFTLNSYGIS, VIYYDGRPTFYGDSVK, GRAAGTFDL, the assay gave 5.17 (1 of 3 replicates).
For GFTLNSIGIS, VIYLDGCRTFYGDSVK, GRAAGTFDS, the assay gave 5.24 (2 of 3 replicates).
For GFTLNSYGIY, VIYVDGRRTFYGDSVK, GRAAGTFDS, the assay gave 5.38 (1 of 3 replicates).
For MFTLKSYGIS, VIYHDGRRTFYGDSVK, GRAAGTFDS, the assay gave no signal (0 of 3 replicates).
For GFTLNSYGIS, VIYVDGRRTFYGDSVK, GRAAGFPDS, the assay gave no signal (0 of 3 replicates).
For GFTLNSLGIS, VIYQDGRRPFYGDSVK, GRAAGTFDS, the assay gave no signal (0 of 3 replicates).
For GFTLNSYGIS, VIYCDGRRTFYGDSVK, TRAAGTFDS, the assay gave no signal (0 of 3 replicates).
For GFTLNSYGIS, VVYVDGRRHFYGDSVK, GRAAGTFDS, the assay gave no signal (0 of 3 replicates).
For GFTLNSYGIS, VIVLDGRRTFYGDSVK, GRAAITFDS, the assay gave no signal (0 of 3 replicates).
For GFTLNSYDIS, VIYEDGRRTFYGDSVK, GRAAGTSDS, the assay gave no signal (0 of 3 replicates).
For GFTLNSYGTS, VIYMDGRRTFYGDSVK, GRAAGTFDS, the assay gave no signal (0 of 3 replicates).
For GATLNSYGIS, VIYIWGRRTFYGDSVK, GRAAGTFDS, the assay gave no signal (0 of 3 replicates).
For GFTLNSYGIS, VIYDDGRRTFYGDSVK, GRAAGTFDS, the assay gave no signal (0 of 3 replicates).
For GFTLNSYGIS, VFYQDGRRTFYGDSVK, GRAAGTGDS, the assay gave no signal (0 of 3 replicates).
For GFTLNSYGIS, VIFIDGRRTIYGDSVK, GRAAGTFDS, the assay gave no signal (0 of 3 replicates).

The last 3 entries again:

| CDR-H1 | CDR-H2 | CDR-H3 | log10 Kd (nM), mean | replicates with signal |
|---|---|---|---|---|
| GFTLNSYGIS | VIYDDGRRTFYGDSVK | GRAAGTFDS | no signal | 0 of 3 |
| GFTLNSYGIS | VFYQDGRRTFYGDSVK | GRAAGTGDS | no signal | 0 of 3 |
| GFTLNSYGIS | VIFIDGRRTIYGDSVK | GRAAGTFDS | no signal | 0 of 3 |

Parent in this assay: reference entry 0.65, copy in this library 4.11 (one replicate of three).